How the values of this data set were obtained: The solubility of the organic carboxylic acid strontium salts, were measured in water. The solubility of these salts was also measured as a function of temperature. This was performed by incubating the saturated solutions of the salts in temperature controlled incubators.
The buffered solutions were immersed into a bath of water temperature controlled at either room temperature (22-24° C.), at 30° C. or at 40° C. […] In order to eliminate any reminiscent strontium chloride influence on the determination of solubility, all the precipitate was collected at the bottom of the test tubes and the solutions above the precipitate were carefully removed and substituted by fresh solutions. […] From these solutions, the dissolved proportions of the strontium salt were collected in volumes of 1 mL at the specified temperature. […]
Two methods were used for quantification of strontium in solutions: Flame Atomic Absorption Spectrometry (F-AAS), and the more sensitive inductively-coupled-plasmamass spectrometry (ICP-MS).
The solubilities were investigated as described above, and strontium content in the saturated solutions determined as described here below.
Some of the very soluble strontium salts were further diluted before analysis by F-AAS. […] Strontium was measured at a slit with of 0.2 nm, the wavelength was 460.8 nm operated at an energy of 58 and a current of 8 mA. […]

The text below walks through data of patent US20130071496A1, “CONTROLLED RELEASE COMPOSITION CONTAINING A STRONTIUM SALT” (Osteologix A/S, priority 2003, published 2013).

As for “strontium alpha-ketoglutarate [α-ketogluterate]”, the “SOLUBILITY AT 40° C., pH 7.5” value was found to be 3809 mg/L.
